Chains of the proteins cited; added tags and fusions are not shown. Lines headed by an entry give the natural chain unless they say otherwise; changes in a name come on top.
UniProt P35370: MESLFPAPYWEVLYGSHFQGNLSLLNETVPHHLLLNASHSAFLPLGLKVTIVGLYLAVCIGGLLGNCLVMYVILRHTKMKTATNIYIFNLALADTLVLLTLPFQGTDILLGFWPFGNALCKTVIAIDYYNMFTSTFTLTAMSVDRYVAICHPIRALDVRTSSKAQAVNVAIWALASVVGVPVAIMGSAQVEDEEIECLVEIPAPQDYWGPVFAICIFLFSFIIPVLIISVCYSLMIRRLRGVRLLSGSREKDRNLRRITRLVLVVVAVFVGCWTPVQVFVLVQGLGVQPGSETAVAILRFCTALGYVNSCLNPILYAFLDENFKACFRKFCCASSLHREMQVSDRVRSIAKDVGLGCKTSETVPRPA

According to patent publication US8877779B2 (priority 2007, dated 2014):

What follows are compounds tested against ORL-1 receptor (Rattus norvegicus, UniProt P35370) (assay: Food consumption increasing action in rat). Conditions: oral administration in light period, food weight at 1, 2, 4 and 6 hr.
With CNC(=O)Cn1c(=O)n(C2CCN(C3CCCc4ccccc43)CC2)c2ccccc21 (stereo not drawn) the “food consumption in rats” value was “significantly increase food consumption”.
CNC(=O)Cn1c(=O)n(C2CCN(C3CCCc4c(C)cccc43)CC2)c2ccccc21 (stereo not drawn) was tested, and the “food consumption in rats” value was “significantly increase food consumption”.
In the case of CNC(=O)Cn1c(=O)n(C2CCN([C@@H]3CCCc4ccccc43)CC2)c2ccccc21, the “food consumption in rats” value is reported as “significantly increase food consumption”.
